Results taken from PubChem BioAssay AID624040 (The Scripps Research Institute Molecular Screening Center, 2012).
This is a selection; strong and weak results do not stand in their true shares. Calls of active or inactive are those of the source.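 Rule for the calls: active = inhibition above a per-plate cutoff, the mean of that plate's test compounds plus 3 SD (cut at about 27% in these data); inactive = the rest.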

Protein sequences, listed by entry. Tags and fused reporters are not part of them.
UniProt P08912, whole entry, looked up: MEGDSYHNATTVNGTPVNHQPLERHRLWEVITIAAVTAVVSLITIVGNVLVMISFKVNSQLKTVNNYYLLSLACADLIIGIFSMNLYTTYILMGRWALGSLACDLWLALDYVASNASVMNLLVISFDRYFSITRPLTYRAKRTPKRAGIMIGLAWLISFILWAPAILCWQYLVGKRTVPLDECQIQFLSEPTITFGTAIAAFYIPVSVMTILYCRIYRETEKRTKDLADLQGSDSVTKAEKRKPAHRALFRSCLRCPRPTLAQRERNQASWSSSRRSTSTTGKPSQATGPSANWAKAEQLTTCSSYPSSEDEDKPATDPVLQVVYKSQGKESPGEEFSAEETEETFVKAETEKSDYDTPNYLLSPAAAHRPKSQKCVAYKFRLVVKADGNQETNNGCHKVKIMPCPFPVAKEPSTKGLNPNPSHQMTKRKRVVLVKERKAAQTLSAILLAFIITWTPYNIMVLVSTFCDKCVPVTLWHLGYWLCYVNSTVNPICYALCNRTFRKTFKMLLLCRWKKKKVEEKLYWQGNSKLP

These compounds were tested against Muscarinic acetylcholine receptor M5 (Homo sapiens) (UniProt P08912) (assay: CHRM5 blockers of acetylcholine calcium response – CHO cells, Fluo-8 calcium fluorescence, primary screen (AID 624040;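 note: 0% = acetylcholine EC80 with DMSO and 100% = DMSO without agonist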)). Conditions: CHO-hM5 cells, ACh EC80, at 3 µM, stronger effect = higher value.

| Compound | inhibition |
| --- | --- |
| CCC1=CC2Cc3nc4ccc(Cl)cc4c(N)c3C(C1)C2 (centres undefined) | inactive: -7.11% |
| O=P1(Nc2ccccn2)COc2ccccc2OC1 | inactive: 1.91% |
| CCOP(=O)(NC(=NC(C)c1ccccc1)NC(C)c1ccccc1)OCC (centres undefined) | inactive: 2.03% |
| CN(CCCl)Cc1cc(Cl)c(NC2=NCCN2)c(Cl)c1 | inactive: -3% |
| CCOP(=O)(Nc1ccc(C)cn1)OCC | inactive: 10.4% |
| Clc1n[nH]nc1-c1nn[nH][15n]1 | inactive: -2.92% |
| O=P1(N(CCCl)CCCl)NCCC(C(F)(F)F)O1 (centres undefined) | inactive: 11.7% |
| CC(C)(C)C(=O)NC(Sc1ncccn1)C(Cl)(Cl)Cl (centres undefined) | inactive: -4.61% |
| COc1ccccc1CNC(=O)COC(=O)C(O)(c1ccccc1)c1ccccc1 | inactive: 6.37% |
| CN(C(=O)Cc1ccc(Cl)c(Cl)c1)[C@@H]1CCCC[C@H]1N1CCCC1 | inactive: 1.79% |
| CC(C)/C=N\N=C(\N)N[N+](=O)[O-] | inactive: 7.47% |
| CC1(CBr)Cn2c(nc3ccccc3c2=O)S1 (centres undefined) | inactive: -3.67% |
| Cc1nn(-c2ccccc2)c2c1P(=O)(N1CCOCC1)N(C)C(c1ccccc1)=N2 (centres undefined) | inactive: -0.91% |
| Cc1ccc(C(=O)OC2CN3CCC2CC3)cc1 (centres undefined) | inactive: -2.06% |
| CC1CCC(C(C)C)C(OP(=O)(Nc2ccccn2)c2ccccc2)C1 (centres undefined) | inactive: -7% |
| O=C(/C=C/c1ccccc1)OC1CN2CCC1CC2 (centres undefined) | inactive: 6.18% |
| CCCC1OP(=O)(Nc2ccccc2)OCC1CC (centres undefined) | inactive: 4.16% |
| Cc1ccc(S(=O)(=O)N(CCCN)CCCc2c(C)nc(N)[nH]c2=O)cc1 | inactive: -6.71% |
| O=P1(Nc2ncccn2)COc2ccccc2OC1 | inactive: 0.25% |
| Nc1cccc([As](=O)(O)c2ccccc2)c1 | inactive: 15.5% |
| NS(=O)(=O)c1cccc(NC(=O)COC(=O)C(O)(c2ccccc2)c2ccccc2)c1 | inactive: 15.4% |
| O=P1(Nc2ccc(Br)cn2)COc2ccccc2OC1 | inactive: 5.45% |
| O=[As](O)(c1cccs1)c1cccs1 | inactive: -1.9% |
| Cc1ccc(OCC(=O)OC2CN3CCC2CC3)cc1 (centres undefined) | inactive: 17.9% |
| CCOP1(=S)c2c(C)nn(CCC#N)c2N=C(c2ccccc2F)N1C (centres undefined) | inactive: 19.7% |

| Compound | inhibition |
| --- | --- |
| O=P(Nc1nccs1)(c1ccccc1)c1nc2ccccc2s1 (centres undefined) | inactive: -1.15% |
| O=P(Nc1nccs1)(Oc1ccccc1)Oc1ccccc1 | inactive: 0.59% |
| CS(=O)(=O)c1cc([N+](=O)[O-])c2no[n+]([O-])c2c1 | inactive: 3.04% |
| O=C(O)COc1ccc([As](=O)(O)O)cc1[N+](=O)[O-] | inactive: -1.36% |
| Nc1ccccc1[As](=O)(O)c1ccccc1 | inactive: -0.11% |
| NC(=O)Nc1ccc([As](=O)(O)O)cc1 | inactive: 7.37% |
| N#CCCN(C(=O)COC(=O)C(O)(c1ccccc1)c1ccccc1)c1ccc(F)cc1 | inactive: 1.79% |
| CN(C(=O)Cc1ccccc1)[C@@H]1CC[C@]2(CCCO2)C[C@H]1N1CCCC1 | inactive: -3.55% |
| CCOP1(=S)c2c(C)nn(CCC#N)c2N=C(c2ccc(F)cc2)N1C (centres undefined) | inactive: 6.55% |
| CN(C)C(=O)c1cc([N+](=O)[O-])cc2c1-c1c(cc([N+](=O)[O-])cc1[N+](=O)[O-])C2=O | inactive: 1.15% |
| O=[N+]([O-])c1ccc2c(c1)nnn2O | inactive: -4.11% |
| CN(C(=O)Cc1ccc(Cl)c(Cl)c1)[C@H]1CC[C@@]2(CCCO2)C[C@@H]1N1CCCC1 | inactive: -4.91% |
| O=C(OC1CN2CCC1CC2)c1ccc(Cl)cc1 (centres undefined) | inactive: 17.6% |
| O=[As](O)(O)c1cccnc1 | inactive: 0.13% |
| CS(=O)(=O)c1ccc(Cl)c(NC(=O)COC(=O)C(O)(c2ccccc2)c2ccccc2)c1 | inactive: -4.08% |
| O=[As](O)(c1cccc(O)c1)c1cccc(O)c1 | inactive: 3.72% |
| Cc1cccc(OCC(=O)OC2CN3CCC2CC3)c1 (centres undefined) | inactive: 14.7% |
| Nc1cccc2c([As](=O)(O)O)cccc12 | inactive: 2.47% |
| Cc1ccc(NCCc2c([N+](=O)[O-])cc([N+](=O)[O-])cc2[N+](=O)[O-])cc1 | inactive: -9.17% |
| CCCOP(=S)(Nc1nc(N)cc(=O)[nH]1)OCCC | inactive: 5.58% |
| C[C@H]1C(=O)O[C@@H]2CCN3CC=C(COC(=O)[C@](C)(O)[C@]1(C)O)[C@H]23 | inactive: 1.18% |
| COc1cc(C2NCCC3(OCCO3)C2(C)C)cc(OC)c1OC (centres undefined) | inactive: -4.77% |
| CCOP(=O)(Nc1cccc2ccccc12)OCC | inactive: -6.01% |
| Cc1c2c(nc3ccccc13)SC(C(Cl)Cl)C2 (centres undefined) | inactive: 7.78% |
| Cc1cc(=O)[nH]c(N[N+](=O)[O-])n1 | inactive: 18.8% |

| Compound | inhibition |
| --- | --- |
| O=P1(N(CCCl)CCCl)Nc2ccccc2N1 | inactive: 17.6% |
| O=P1(N(CCCl)CCCl)OCCCN1CCCl (centres undefined) | inactive: 4.03% |
| COc1ccc2nc(NP(=O)(c3ccccc3)c3ccccc3)sc2c1 | inactive: 6.21% |
| COc1cc(I)ccc1[As](=O)(O)O | inactive: -11.4% |
| O=[N+]([O-])c1cc(Oc2ccc([N+](=O)[O-])cc2C(F)(F)F)cc([N+](=O)[O-])c1 | inactive: 9.69% |
| COc1ccc(N/C(=N/P(=O)(N2CCOCC2)N2CCOCC2)N2CCOCC2)cc1 | inactive: -2.83% |
| C[As](=O)(O)c1cccc(C(=O)O)c1 | inactive: 2.8% |
| O=[As](O)(c1ccc(O)cc1)c1ccccc1O | inactive: -3.74% |
| O=[N+]([O-])c1ccc(-c2cc([N+](=O)[O-])c(O)c([N+](=O)[O-])c2)cc1 | inactive: -1.42% |
| Cc1ccc(OP(=O)(Nc2ccc([N+](=O)[O-])cn2)Oc2ccc(C)cc2)cc1 | inactive: 7.59% |
| [N-]=[N+]=NC1CCCCC1NC(=O)c1cc([N+](=O)[O-])cc([N+](=O)[O-])c1 (centres undefined) | inactive: 0.29% |
| CC(Cc1ccc(O)cc1)NCC(O)c1cc(O)cc(O)c1 (centres undefined) | inactive: 3.58% |
| Cc1ccc2nc3c(c(C)c2c1)CC(C(Cl)Cl)S3 (centres undefined) | inactive: -13.7% |
| ClCCSc1nnc(-c2cccnc2)o1 | inactive: -4.85% |
| CC(C)c1ccc(OP(=O)(Nc2ccccn2)Oc2ccccc2F)cc1 (centres undefined) | inactive: 6.54% |
| COC(=O)C1(C)COP(=O)(N2CCCCCC2)OC1 (centres undefined) | inactive: 3.35% |
| O=C(OC1CN2CCC1CC2)c1cccc2[nH]cnc12 (centres undefined) | inactive: -2.53% |
| CCN(CC)C(=S)SC(NC=O)C(Cl)(Cl)Cl (centres undefined) | inactive: 6.56% |
| CC(C)NC(=O)NP(=O)(Oc1ccccc1)Oc1ccccc1 | inactive: 4.91% |
| O=[N+]([O-])c1cc([N+](=O)[O-])c(-c2ccn[nH]2)s1 | inactive: 9.21% |
| O=C(O)C(O)c1ccc(N(CCCl)CCCl)cc1 (centres undefined) | inactive: 4.6% |
| CCOC(=O)Nc1ccc([As](=O)(O)O)c(O)c1 | inactive: -6.61% |
| CC1CCNP(=O)(N(CCCl)CCCl)O1 (centres undefined) | inactive: 14.4% |
| C/C=C1/CC(C)C(C)(O)C(=O)OCC2CCN3CCC(OC1=O)C23 (centres undefined) | active: 47.9% |
| COP(=O)(OC)N1CC1c1ccccc1 (centres undefined) | inactive: -2.25% |

| Compound | inhibition |
| --- | --- |
| Cc1cc(SC(NC(=O)c2ccccc2)C(Cl)(Cl)Cl)nc(C(C)C)n1 (centres undefined) | inactive: 3.8% |
| CCOC(=O)Nc1cccc([As](=O)(O)O)c1 | inactive: 8.93% |
| Cc1cc(SC(NC=O)C(Cl)(Cl)Cl)ncn1 (centres undefined) | inactive: -9.52% |
| O=P(Nc1ccccn1)(c1cccc2ccccc12)c1cccc2ccccc12 | inactive: -10.2% |
| O=[N+]([O-])c1ccc(Nc2ccc(Oc3ccc([N+](=O)[O-])cc3[N+](=O)[O-])cc2)c([N+](=O)[O-])c1 | inactive: 6.35% |
| COP1(=S)c2c(C)nn(CCC#N)c2N=C(c2ccc(F)cc2)N1C (centres undefined) | inactive: 1.14% |
| COC(=O)C1(C)COP(=O)(N2CCCC2)OC1 (centres undefined) | inactive: 7.27% |
| O=C(O)C(=O)c1ccc(N(CCCl)CCCl)cc1 | inactive: -1.97% |
| O=C(Nc1ccncc1[N+](=O)[O-])c1ccc([N+](=O)[O-])cc1[N+](=O)[O-] | inactive: 1.07% |
| O=C(OC1CN2CCC1CC2)c1cccc([N+](=O)[O-])c1 (centres undefined) | inactive: 8.94% |
| CSc1ccc(Nc2c([N+](=O)[O-])cc([N+](=O)[O-])cc2[N+](=O)[O-])cc1 | inactive: 21.2% |
| CCOC(=O)c1ccc(NC(=O)C(C)(CCl)SC)cc1 (centres undefined) | inactive: 5.19% |
| CCC(C)N(CC(C)C)C(=S)SC(NC(C)=O)C(Cl)(Cl)Cl (centres undefined) | inactive: 2.6% |
| COc1ccc(C2=NCC(CBr)S2)cc1 (centres undefined) | inactive: 7.61% |
| Cc1ccc(NP(=O)(Oc2ccccc2)Oc2ccccc2)nc1 | inactive: 6.95% |
| O=[N+]([O-])c1cc([N+](=O)[O-])c(CCNc2ccccc2)c([N+](=O)[O-])c1 | inactive: 2.06% |
| CCc1nc2c(n1)c1c(non1O)c1c2no[n+]1[O-] | inactive: 5.02% |
| CC(=O)N1C2C3N(C(C)=O)C1C1N(C(C)=O)C(C(N1C(C)=O)N3C(C)=O)N2C(C)=O | inactive: -5.25% |
| O=[N+]([O-])c1cccc2n[nH]nc12 | inactive: 1.43% |
| CCN(/C(=N/P(=O)(N1CCOCC1)N1CCOCC1)N1CCOCC1)c1ccc(OC)cc1 | inactive: 4.34% |
| Nc1ccc([As](=O)(O)c2ccc(N)cc2)cc1 | inactive: 6.5% |
| C[N+]1=C2C=CC=CC=C2SC12C([N+](=O)[O-])=CC([N+](=O)[O-])=C[C-]2[N+](=O)[O-] (centres undefined) | active: 42.6% |
| c1cc(-c2nn[nH]n2)ccc1-c1nn[nH]n1 | inactive: -10.1% |
| CC1CCN(C(=O)Oc2c(Cl)cc(Cl)c3cccnc23)CC1 | inactive: -5.68% |
